Paper PMC9133069, “In vitro proliferation and long-term preservation of functional primary rat hepatocytes in cell fibers” (Scientific Reports, 2022)

Test system: primary rat hepatocytes
Test: Assessment of hepatocyte proliferation inhibition in cell fibers
Assay type: cell-based
Conditions: after 10 mg mL^−1 for 24 h, followed up to 7 days of culture
Experimental: To test this hypothesis, we used retrorsine, a compound that is standardly used to inhibit rat hepatocyte regeneration in vivo[31],[32] and we attempted to measure its IC50 value by obtaining its concentration-reaction curve. Practically, core–shell hydrogel microfibers were fabricated to encapsulate primary rat hepatocytes at the initial cell seeding density of 2.5 × 10^7 cells mL^−1. […] The proliferation ratio of primary hepatocytes in the experimental groups were calculated, and the concentration-reaction curve for retrorsine was obtained (Fig. 4).
Subsequently, we evaluated whether this inhibitory effect of retrorsine on hepatocyte proliferation is reversible or irreversible. […]
Counting primary rat hepatocytes and evaluating their viability per cell fiber were performed three times and averaged. […] The cell number of primary rat hepatocytes per cell fiber was counted by using cell-counting plate (WakenBtech, Japan). […]
Retrorsine (Sigma-Aldrich) was adopted as a compound that inhibits hepatocyte proliferation. […] The proliferation rate of the hepatocytes in the experimental groups was calculated by dividing the numbers of the hepatocytes that proliferated from 2 days of culture to 3 days of culture in the experimental groups with the ones in the control group. […]

Substance: retrorsine
- reversibility of inhibitory effect on hepatocyte proliferation: proliferated after the removal of retrorsine
